Values quoted from earlier work in US20230073449A1, “STROMA-FREE T CELL DIFFERENTIATION FROM HUMAN PLURIPOTENT STEM CELLS” (THE CHILDREN'S MEDICAL CENTER CORPORATION, priority 2020, published 2023).

The chains behind the UniProt entries cited, without tags or fusion partners. Where a name states a change or a piece, a line headed by the entry shows the natural chain unless it says otherwise.
UniProt O43463: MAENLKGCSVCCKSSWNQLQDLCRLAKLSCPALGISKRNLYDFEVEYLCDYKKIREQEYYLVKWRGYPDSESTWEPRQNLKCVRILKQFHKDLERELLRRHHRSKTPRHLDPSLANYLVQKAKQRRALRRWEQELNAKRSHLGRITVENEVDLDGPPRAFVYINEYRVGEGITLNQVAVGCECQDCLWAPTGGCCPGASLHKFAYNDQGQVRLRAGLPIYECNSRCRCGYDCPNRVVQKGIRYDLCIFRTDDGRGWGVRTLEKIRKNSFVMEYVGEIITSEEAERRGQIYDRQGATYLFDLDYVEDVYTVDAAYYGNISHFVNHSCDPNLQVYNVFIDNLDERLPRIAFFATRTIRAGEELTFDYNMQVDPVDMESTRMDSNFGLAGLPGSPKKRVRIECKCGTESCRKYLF
UniProt P26358: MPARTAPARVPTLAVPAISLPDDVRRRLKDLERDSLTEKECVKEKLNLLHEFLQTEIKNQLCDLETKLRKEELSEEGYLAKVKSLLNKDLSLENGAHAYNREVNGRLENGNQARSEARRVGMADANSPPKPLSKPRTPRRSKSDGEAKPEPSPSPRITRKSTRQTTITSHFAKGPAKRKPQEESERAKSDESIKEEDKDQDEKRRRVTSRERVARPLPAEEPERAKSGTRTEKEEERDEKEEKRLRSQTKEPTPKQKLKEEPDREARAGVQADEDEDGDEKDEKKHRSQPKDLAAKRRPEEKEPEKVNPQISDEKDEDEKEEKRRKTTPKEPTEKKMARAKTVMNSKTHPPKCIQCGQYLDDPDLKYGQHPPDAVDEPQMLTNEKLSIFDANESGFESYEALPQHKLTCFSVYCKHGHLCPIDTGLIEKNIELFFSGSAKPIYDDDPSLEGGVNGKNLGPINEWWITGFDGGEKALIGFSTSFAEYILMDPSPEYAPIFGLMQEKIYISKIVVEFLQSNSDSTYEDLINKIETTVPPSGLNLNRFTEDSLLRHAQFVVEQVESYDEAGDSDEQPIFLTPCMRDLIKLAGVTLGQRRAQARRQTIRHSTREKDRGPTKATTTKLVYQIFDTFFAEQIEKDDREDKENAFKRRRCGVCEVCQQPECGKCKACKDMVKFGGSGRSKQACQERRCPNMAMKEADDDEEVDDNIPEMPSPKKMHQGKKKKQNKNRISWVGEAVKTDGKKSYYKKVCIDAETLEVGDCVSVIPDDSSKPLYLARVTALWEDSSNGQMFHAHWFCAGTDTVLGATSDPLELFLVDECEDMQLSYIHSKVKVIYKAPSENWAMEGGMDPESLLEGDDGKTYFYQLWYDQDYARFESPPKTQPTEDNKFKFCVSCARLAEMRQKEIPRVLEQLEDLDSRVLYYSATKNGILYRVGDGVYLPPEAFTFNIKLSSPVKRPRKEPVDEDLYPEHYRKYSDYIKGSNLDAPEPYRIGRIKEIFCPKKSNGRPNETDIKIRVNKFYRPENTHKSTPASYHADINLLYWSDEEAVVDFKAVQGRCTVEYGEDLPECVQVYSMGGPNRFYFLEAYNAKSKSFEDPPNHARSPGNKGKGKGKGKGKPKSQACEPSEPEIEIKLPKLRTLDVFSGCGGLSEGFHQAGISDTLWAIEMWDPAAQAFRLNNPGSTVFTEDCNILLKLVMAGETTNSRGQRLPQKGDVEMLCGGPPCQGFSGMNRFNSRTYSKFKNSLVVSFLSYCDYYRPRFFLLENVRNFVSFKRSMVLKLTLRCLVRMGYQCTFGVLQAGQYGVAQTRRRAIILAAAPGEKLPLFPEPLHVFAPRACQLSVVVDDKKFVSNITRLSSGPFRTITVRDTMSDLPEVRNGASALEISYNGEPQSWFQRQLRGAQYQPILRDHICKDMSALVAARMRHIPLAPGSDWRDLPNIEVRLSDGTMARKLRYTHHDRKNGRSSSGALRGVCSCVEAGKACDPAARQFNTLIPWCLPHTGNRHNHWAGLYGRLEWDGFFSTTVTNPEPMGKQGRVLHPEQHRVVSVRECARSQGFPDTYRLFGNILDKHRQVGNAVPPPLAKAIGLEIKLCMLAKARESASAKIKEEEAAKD

Key:
SU39H1 = SU39H1 (Homo sapiens, UniProt O43463); settings: up to a concentration of 40 μM; cited from earlier work
G9a = molecular target: T1, G9a (Homo sapiens, UniProt Q96KQ7); settings: cited from earlier work
T1 sequence (Q96KQ7 1-1210): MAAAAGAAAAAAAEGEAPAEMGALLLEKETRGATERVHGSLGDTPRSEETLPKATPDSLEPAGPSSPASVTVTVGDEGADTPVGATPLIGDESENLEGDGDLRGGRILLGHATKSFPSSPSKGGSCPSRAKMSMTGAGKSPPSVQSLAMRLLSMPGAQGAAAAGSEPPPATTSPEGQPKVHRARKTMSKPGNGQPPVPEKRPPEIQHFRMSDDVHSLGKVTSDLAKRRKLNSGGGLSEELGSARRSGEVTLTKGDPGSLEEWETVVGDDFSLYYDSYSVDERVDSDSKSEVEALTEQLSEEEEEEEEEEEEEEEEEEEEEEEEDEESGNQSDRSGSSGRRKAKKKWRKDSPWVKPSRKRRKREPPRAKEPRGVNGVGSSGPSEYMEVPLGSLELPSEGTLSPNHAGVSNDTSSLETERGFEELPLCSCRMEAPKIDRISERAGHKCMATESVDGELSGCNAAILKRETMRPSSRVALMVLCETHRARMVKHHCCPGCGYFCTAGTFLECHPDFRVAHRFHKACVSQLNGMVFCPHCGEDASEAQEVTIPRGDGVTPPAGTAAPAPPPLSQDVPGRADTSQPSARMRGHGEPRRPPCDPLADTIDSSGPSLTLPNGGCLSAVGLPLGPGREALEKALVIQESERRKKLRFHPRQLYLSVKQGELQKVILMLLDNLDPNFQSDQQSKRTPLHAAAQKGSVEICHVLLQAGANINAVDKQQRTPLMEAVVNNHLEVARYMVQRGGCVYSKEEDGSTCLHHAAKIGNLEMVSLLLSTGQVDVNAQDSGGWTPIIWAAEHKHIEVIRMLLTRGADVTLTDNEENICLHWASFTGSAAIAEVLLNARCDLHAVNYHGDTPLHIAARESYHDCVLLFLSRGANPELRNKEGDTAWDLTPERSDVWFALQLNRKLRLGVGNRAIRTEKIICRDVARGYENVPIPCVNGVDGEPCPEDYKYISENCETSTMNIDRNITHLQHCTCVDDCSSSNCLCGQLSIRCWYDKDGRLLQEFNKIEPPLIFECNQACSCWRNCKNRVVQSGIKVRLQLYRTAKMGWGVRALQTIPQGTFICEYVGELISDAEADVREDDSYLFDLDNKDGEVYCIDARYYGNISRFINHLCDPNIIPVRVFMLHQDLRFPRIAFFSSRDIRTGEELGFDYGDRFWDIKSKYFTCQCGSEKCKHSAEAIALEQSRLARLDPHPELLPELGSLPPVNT

NDMT1 = NDMT1 (Homo sapiens, UniProt P26358); settings: up to a concentration of 40 μM; cited from earlier work

O=C(O)c1ccc2c(c1)nc(NC(=O)c1ccccc1)n2CCCc1ccccc1 [BRD9539]
selectivity for G9a and PRC2 over SU39H1 (SU39H1): selective
potency relative to BRD4770 (G9a): is more potent than
selectivity for G9a and PRC2 over NDMT1 (NDMT1): selective
